Results published in publication PMC9749463 (European Journal of Pharmacology, 2021).

Chains of the proteins cited; added tags and fusions are not shown. Lines headed by an entry give the natural chain unless they say otherwise; changes in a name come on top.
UniProt Q13936, whole entry: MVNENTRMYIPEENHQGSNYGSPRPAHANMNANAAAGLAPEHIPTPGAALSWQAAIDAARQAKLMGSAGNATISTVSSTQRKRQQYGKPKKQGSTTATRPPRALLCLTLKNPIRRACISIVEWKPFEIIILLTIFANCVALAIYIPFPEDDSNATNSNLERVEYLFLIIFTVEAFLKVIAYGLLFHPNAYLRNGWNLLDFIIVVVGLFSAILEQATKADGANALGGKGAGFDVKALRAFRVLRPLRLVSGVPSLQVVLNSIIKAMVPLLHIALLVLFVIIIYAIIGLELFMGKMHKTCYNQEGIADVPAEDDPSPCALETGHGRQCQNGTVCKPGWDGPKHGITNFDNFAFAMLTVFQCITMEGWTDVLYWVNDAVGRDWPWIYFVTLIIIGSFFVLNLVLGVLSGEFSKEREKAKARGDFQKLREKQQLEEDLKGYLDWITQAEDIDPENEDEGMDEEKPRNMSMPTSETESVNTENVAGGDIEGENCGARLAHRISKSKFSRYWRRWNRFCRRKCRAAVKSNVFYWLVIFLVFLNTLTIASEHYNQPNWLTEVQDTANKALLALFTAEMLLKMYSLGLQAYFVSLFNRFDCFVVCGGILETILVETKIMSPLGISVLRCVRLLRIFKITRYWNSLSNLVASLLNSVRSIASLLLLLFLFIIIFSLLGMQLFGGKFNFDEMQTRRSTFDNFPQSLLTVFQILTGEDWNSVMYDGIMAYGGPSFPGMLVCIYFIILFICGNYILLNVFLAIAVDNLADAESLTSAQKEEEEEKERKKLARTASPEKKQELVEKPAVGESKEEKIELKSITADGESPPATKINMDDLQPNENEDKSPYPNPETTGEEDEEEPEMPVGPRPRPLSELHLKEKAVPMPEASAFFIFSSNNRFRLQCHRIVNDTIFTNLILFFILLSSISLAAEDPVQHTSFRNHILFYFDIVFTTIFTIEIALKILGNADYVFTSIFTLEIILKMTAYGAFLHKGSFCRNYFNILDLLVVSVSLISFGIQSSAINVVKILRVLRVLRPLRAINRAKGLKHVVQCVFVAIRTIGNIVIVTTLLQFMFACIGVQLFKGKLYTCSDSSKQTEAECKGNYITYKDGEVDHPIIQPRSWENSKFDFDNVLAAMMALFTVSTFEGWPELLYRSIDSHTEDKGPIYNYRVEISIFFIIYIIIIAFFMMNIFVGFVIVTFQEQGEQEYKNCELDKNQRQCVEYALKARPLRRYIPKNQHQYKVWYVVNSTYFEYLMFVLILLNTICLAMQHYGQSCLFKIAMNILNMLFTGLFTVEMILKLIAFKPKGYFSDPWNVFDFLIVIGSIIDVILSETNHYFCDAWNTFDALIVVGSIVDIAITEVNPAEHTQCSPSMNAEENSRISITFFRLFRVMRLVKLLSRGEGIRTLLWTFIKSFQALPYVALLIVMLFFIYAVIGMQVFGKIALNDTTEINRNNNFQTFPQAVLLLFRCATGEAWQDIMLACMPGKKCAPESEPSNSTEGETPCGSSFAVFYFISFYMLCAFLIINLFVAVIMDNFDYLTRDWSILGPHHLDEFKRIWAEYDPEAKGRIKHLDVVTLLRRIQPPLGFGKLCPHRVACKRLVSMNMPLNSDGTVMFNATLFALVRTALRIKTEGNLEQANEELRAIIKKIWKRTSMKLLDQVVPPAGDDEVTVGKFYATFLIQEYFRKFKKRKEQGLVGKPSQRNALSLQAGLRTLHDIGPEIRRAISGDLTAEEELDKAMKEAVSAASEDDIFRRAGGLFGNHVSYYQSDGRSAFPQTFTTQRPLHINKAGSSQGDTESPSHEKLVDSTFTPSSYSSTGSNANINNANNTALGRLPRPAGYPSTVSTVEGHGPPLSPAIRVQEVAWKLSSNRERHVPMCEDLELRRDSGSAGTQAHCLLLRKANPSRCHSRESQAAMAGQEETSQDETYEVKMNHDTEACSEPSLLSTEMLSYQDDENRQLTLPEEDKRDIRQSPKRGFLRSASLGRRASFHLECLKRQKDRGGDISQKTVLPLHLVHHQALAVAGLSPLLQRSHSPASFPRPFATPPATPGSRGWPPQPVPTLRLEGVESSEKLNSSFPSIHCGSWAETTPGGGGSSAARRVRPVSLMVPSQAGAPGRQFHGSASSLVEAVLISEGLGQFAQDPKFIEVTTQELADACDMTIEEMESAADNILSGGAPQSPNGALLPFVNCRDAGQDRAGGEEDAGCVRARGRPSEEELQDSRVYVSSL

Target: CaV1.2/β2/α2δ1 (Homo sapiens, UniProt Q13936)
Assay: automated patch-clamp
Format: cell-based

Q: `CC(C)COCC(CN(Cc1ccccc1)c1ccccc1)N1CCCC1` (stereo not shown) [bepridil] was tested. Which IC50 did it give?
A: Its IC50 is 5.2 µM.
